Legend:
Format in all cases: cell-based, human
Settings in all cases: agent alone, 24 h
A549 cells = assay: Cell proliferation, BrdU ELISA and Celltiter Glo (FIG. 1)
Colo205 cells = assay: Cell proliferation, BrdU ELISA and Celltiter Glo (FIG. 2)
Procedure: (§1) A549 cells were grown in RPMI-1640 supplemented with 25 mM HEPES, 10 mM glutamine and 10% fetal bovine serum and maintained at 37° C. and 5% CO2 in a humid incubator. Colo205 and MDA-MB-468 cells were grown in DMEM supplemented with 25 mM HEPES, 10 mM glutamine, 4.5 g/L d-glucose, and 10% fetal bovine serum. Assays were performed in 96 well microtiter plates with optimum seeding densities for each cell line.
(§2) Cell proliferation was measured using the Celltiter Glo® Luminescent Cell Viability Assay available from Promega Corporation and the Roche BrdU Cell Proliferation ELISA assay.
(§3) Cell death was measured using the Roche Cell Death ELISA^Plus kit and Promega Apo-ONE™ Homogeneous Caspase-3/7 Assay. Total cell number was measured using the Celltiter Glo® Luminescent Cell Viability Assay and cell proliferation was measured with the Roche BrdU Cell Proliferation ELISA assay.

MDA-MB-468 cells = assay: Cell proliferation, BrdU ELISA and Celltiter Glo (FIG. 3)
Procedure: as §1, §2, §3

Measured: cell proliferation

CS(=O)(=O)CCNCc1ccc(-c2ccc3ncnc(Nc4ccc(OCc5cccc(F)c5)c(Cl)c4)c3c2)o1 [GW572016, N-{3-Chloro-4-[(3-fluorobenzyl)oxy]phenyl}-6-[5-({[2-(methanesulphonyl)ethyl]amino}methyl)-2-furyl]-4-quinazolinamine ditosylate monohydrate]
decreased cell proliferation: all assays above
